Ab-14 light chain CDR variants: yeast mating affinities

Antigen: PDVDLGDISGINAS, a 14-residue peptide of the SARS-CoV-2 spike HR2 region.

Parent scFv Ab-14: VH joined to VL by a (GGGGS)3 linker. Changes lie in the light chain CDRs alone.
VH: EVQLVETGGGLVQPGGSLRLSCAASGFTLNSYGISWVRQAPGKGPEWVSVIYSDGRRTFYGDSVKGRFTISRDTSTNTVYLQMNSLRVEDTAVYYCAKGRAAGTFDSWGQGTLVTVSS
VL: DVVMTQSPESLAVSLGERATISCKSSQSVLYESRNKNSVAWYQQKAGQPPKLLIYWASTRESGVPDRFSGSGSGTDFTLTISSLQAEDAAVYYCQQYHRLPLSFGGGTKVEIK

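The starting antibody came from a phage panning campaign against this peptide. Variants in AAYL50 differ from the parent at up to three CDR positions; double and triple changes were sampled at random. In AlphaSeq, yeast of one mating type display the scFv and yeast of the other type display the target. Binding brings cells together so that they mate, and sequencing counts the barcode pairs among the diploids. Read counts were normalised to the haploid input and turned into Kd by a linear fit to BCL2-family pairs of known affinity, for each replicate. Mating was done three times.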

Each variant is given by its three light chain CDRs, as the data file delimits them; those of the parent are KSSQSVLYESRNKNSVA, WASTRES, QQYHRLPLS. Numbers give log10(Kd / nM), so 0 is 1 nM and 3 is 1 µM. Smaller is tighter. Averages over replicates are reported, and they cover detected replicates only. "n.d." marks a missing value. The strain was present, yet no cells mated with the target were sequenced in that replicate, which points to weak or no binding. Empty control strains, which show no peptide, gave a signal in 18% of pairings with library AAYL50; the median was 4.19 and 95% of these signals were weaker than 2.99. No background was subtracted. For each scFv, signals with the empty controls are counted beside the result, with their mean in brackets.

CDR-L1 | CDR-L2 | CDR-L3 | log10 Kd, replicates | mean, log10 nM | signal with controls
KSSQSVLNESRNKKSVA | WASLRES | QQYHRLPLS | 1.51 / 1.47 / 1.66 | 1.55 | 3 of 9 (4.80)
KSSQSVAYESRNKNSVA | WASERES | VQYHRLPLS | 6.44 / 4.35 / n.d. | 5.39 | 2 of 9 (4.81)
KNSQSVLYESRNKNSVA | WASTRAS | QQYHRLPWS | n.d. / n.d. / n.d. | n.d. | 2 of 9 (5.31)
KSSMSVLYESRNKNLVA | WASTRES | QQYHRLPLS | 4.30 / n.d. / n.d. | 4.30 | 2 of 9 (4.24)
KSSQSVLYESRNKNSHA | WASTRES | QIYERLPLS | n.d. / n.d. / n.d. | n.d. | 1 of 9 (3.29)
KSSQQVLYESRPKNSVA | FASTRES | QQYHRLPLS | 2.19 / 2.32 / 2.17 | 2.23 | 5 of 9 (4.91)
KSSQSVLYESRNKTGVA | WASTRES | YQYHRLPLS | 4.06 / 3.24 / 4.12 | 3.81 | 2 of 9 (3.60)
KSSQSVLYESRNKNSVA | AASTVES | QQYHPLPLS | n.d. / n.d. / n.d. | n.d. | 2 of 9 (3.87)
KSSQSVLYESRNKNSVA | WASTTES | QQYHRWPYS | 4.07 / n.d. / 4.57 | 4.32 | 4 of 9 (4.61)
KSSQSVLKESRNKNYVA | WASTRES | QQYHRLPLS | n.d. / n.d. / n.d. | n.d. | 0 of 9
KSSQSVLYESRNKNSVA | WASTRES | KQYHRLWWS | n.d. / n.d. / n.d. | n.d. | 2 of 9 (4.38)
KSSQSVIYESRNKNSVA | VASTRES | QQYRRLPLS | n.d. / 4.35 / n.d. | 4.35 | 1 of 9 (2.85)
KSSQSVLYESNNKNSVA | WASTCEL | QQYHRLPLS | 2.65 / 2.56 / 2.67 | 2.63 | 6 of 9 (4.05)
PSSQSCLYESRNKNSGA | WASTRES | QQYHRLPLS | n.d. / n.d. / n.d. | n.d. | 0 of 9
KSSQSVLYESRNKGSGA | WASTRES | QQYHRLQLS | n.d. / n.d. / n.d. | n.d. | 5 of 9 (4.33)
KSSQSVLYESRNKNSVA | WASARES | QPYHRLPYS | 4.37 / 5.36 / n.d. | 4.86 | 2 of 9 (4.30)
KWSQSVLYESRNKNSVA | HASTRES | QQYHRFPLS | 1.21 / 0.93 / 0.96 | 1.03 | 0 of 9
TSSQSLLYERRNKNSVA | WASTRES | QQYHRLPLS | 1.85 / 1.77 / 2.60 | 2.07 | 1 of 9 (2.71)
KSSQSVLYESRNKNLVA | WKSTRES | QQYHRLPLQ | n.d. / n.d. / n.d. | n.d. | 0 of 9
KSDQSVWYESRNKNSVA | WASTRES | QQYHRQPLS | 2.37 / 2.15 / 2.46 | 2.33 | 6 of 9 (4.56)
KSSQSFLYESRNKNSLA | WASTRSS | QQYHRLPLS | n.d. / n.d. / n.d. | n.d. | 3 of 9 (3.41)
KSSQSVLYESRNKNNVA | WAWTRES | DQYHRLPLS | 2.83 / 2.73 / 3.16 | 2.91 | 0 of 9
KSHQSVLYESRNKNSCA | WASTRES | QQYHRLLLS | n.d. / n.d. / n.d. | n.d. | 0 of 9
KSSQSVLYESRNKNSIA | WASTRES | QQYHILPLA | 1.36 / 1.52 / 1.53 | 1.47 | 3 of 9 (5.49)
KTIQSVLYESRNKNSVL | WASTRES | QQYHRLPLS | n.d. / n.d. / n.d. | n.d. | 2 of 9 (4.36)
KSSQSVLDTSRNKNSVA | WASTRES | QQQHRLPLS | n.d. / n.d. / n.d. | n.d. | 0 of 9
KSQQSMLYESRNKCSVA | WASTRES | QQYHRLPLS | n.d. / n.d. / n.d. | n.d. | 1 of 9 (2.96)
KSSQSVLYESRNKNSGA | WFCTRES | QQYHRLPLS | n.d. / n.d. / n.d. | n.d. | 1 of 9 (3.79)
GSSQSVLYYSRNKNSVA | WASTRES | QQYHHLPLS | 3.30 / 2.19 / 2.43 | 2.64 | 3 of 9 (4.55)
KSSLSVLYESRNKNSVA | WAETRES | QQYHRLPKS | 1.61 / 1.60 / 1.72 | 1.64 | 2 of 9 (4.30)
KSSQSVLYECINKNAVA | WASTRES | QQYHRLPLS | n.d. / 4.80 / n.d. | 4.80 | 0 of 9
KSSQSVLYESDNKNSVA | WASTIES | QQYHRLPLS | 2.24 / 1.93 / 2.10 | 2.09 | 0 of 9
KCSQSVLYESRHKNSVA | WASTREL | QQYHRLPLS | 1.21 / 1.23 / 1.40 | 1.28 | 1 of 9 (4.26)
KSSQSALYESRNKNSVA | KASTRES | QQYHLLPLS | 1.65 / 1.58 / 1.64 | 1.63 | 5 of 9 (4.61)
HSSQSVLYESRNKNSVI | WASTRES | QQYIRLPLS | n.d. / n.d. / n.d. | n.d. | 0 of 9
HSSQSVLYESKNKNSVA | WASTRES | QQYHRLCLS | 1.03 / 1.18 / 1.30 | 1.17 | 0 of 9
KSPQSVLYESRNNRSVA | WASTRES | QQYHRLPLS | 0.49 / 0.42 / 0.59 | 0.50 | 1 of 9 (2.59)
KSSQSVLYESYNKNSVA | WASTRES | QQYHRLPLS | n.d. / n.d. / n.d. | n.d. | 0 of 9

Picked from the list: the 5 lowest averages where every replicate gave a value.

CDR-L1	CDR-L2	CDR-L3	log10 Kd, replicates	mean, log10 nM	signal with controls
KSPQSVLYESRNNRSVA	WASTRES	QQYHRLPLS	0.49 / 0.42 / 0.59	0.50	1 of 9 (2.59)
KWSQSVLYESRNKNSVA	HASTRES	QQYHRFPLS	1.21 / 0.93 / 0.96	1.03	0 of 9
HSSQSVLYESKNKNSVA	WASTRES	QQYHRLCLS	1.03 / 1.18 / 1.30	1.17	0 of 9
KCSQSVLYESRHKNSVA	WASTREL	QQYHRLPLS	1.21 / 1.23 / 1.40	1.28	1 of 9 (4.26)
KSSQSVLYESRNKNSIA	WASTRES	QQYHILPLA	1.36 / 1.52 / 1.53	1.47	3 of 9 (5.49)

For reference, the parent read 0.65 as the reference entry and 1.68 as a member of this library.

Reference: Engelhart et al. 2022, doi:10.1038/s41597-022-01779-4. File: FLAb, binding data.